ChEMBL document CHEMBL1129937, “Synthesis and dihydrofolate reductase inhibitory activities of 2,4-diamino-5-deaza and 2,4-diamino-5,10-dideaza lipophilic antifolates” (J Med Chem, 1997)

Target: T1, Dihydrofolate reductase (Pneumocystis carinii, UniProt P16184)
T1 sequence (P16184 whole entry): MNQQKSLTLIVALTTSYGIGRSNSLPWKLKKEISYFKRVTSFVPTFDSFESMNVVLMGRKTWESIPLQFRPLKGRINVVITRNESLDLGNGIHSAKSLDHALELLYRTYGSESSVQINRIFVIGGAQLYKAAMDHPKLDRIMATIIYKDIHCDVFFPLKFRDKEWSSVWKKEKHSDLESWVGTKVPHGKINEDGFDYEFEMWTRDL

IC50 [µM] | Compound
5 | COc1cc(CCc2cnc3nc(N)nc(N)c3c2)cc(OC)c1OC
7.7 | COc1ccc(CCC2CNc3nc(N)nc(N)c3C2)cc1OC (configuration not stated)
